From BindingDB's records for doi:10.1016/S0893-133X(01)00298-6 (Eli Lilly, 2001)

Target: Norepinephrine transporter (Rattus norvegicus, UniProt Q9JIA2)

SMILES: COc1ccc(C(CN(C)C)C2(O)CCCCC2)cc1 (stereo unspecified) [NSC_62923]
- Ki: 3.19 µM
